Experimental data as given in US20220288277A1, “SURFACE COATINGS AND IMPLANTABLE DEVICES COMPRISING DIMERIC STEROID PRODRUGS, AND USES THEREOF” (Ripple Therapeutics Corporation, priority 2019, published 2022).

Assays:
Assay type in all cases: physicochemical
[1] = Coating retention / drug release from coated substrates in 100% FBS at 37 C, HPLC; conditions: drop coated on substrate (7 mm^2), agitation
Protocol: Compound 1 was drop coated with the same total amount of compound 1 from an organic solution (acetone) onto SIBS films, Dacron films, and fibrous Dacron meshes, and drug release was carried out in 100% FBS at 37 C. The coating was extracted from the substrates at different time points and was plotted as a percentage of coating retained over time (FIG. 4).
Substrates coated with Compound 1 by drop coating or spray coating were incubated in fetal bovine serum (FBS) to determine the amount of Compound 1 retained over time. Each coated substrate was placed in a glass vial containing 4 mL FBS and incubated at 37° C. on a rotating platform. After 1 to 4 days, the remaining coating was extracted and was determined by HPLC (FIG. 9). The amount of Compound 1 retained following 1-day incubation in FBS ranged from 15 to 100% of the initial amount loaded and roughly correlated with thickness (total loading) of the coating.
To study the drug release from coated surfaces, Compound 4 was drop coated on a substrate (surface area of 7 mm^2) and solvent was evaporated to form the surface coating. Drug release was carried out in 100% FBS and agitation at 37 C with buffer changes and was monitored by HPLC.

[2] = In vitro drug release profiles from coated discs; conditions: coated discs (FIG. 18B)
[3] = Drug release from coated surfaces and extruded cylinders in PBS at 37 C, monitored by HPLC; conditions: drop coated from DCM onto glass vial; PBS at 37 C with buffer changes
From the text: As stated herein, “t50” is the time at which 50% of the releasable drug has been released from a surface coating or drug depot of the disclosure. Time t10 is, correspondingly, the time at which 10% of the releasable drug has been released from a surface coating or drug depot of the disclosure. When the release curve is perfectly linear, t10=⅕ of t50. When there is an initial burst of released drug, t10 is much less than ⅕ of t50. In the compositions and methods of the disclosure t10 can be equal to or greater than 1/10 of t50. Drug release from a surface coating, drug depot, or compound of the disclosure can be measured at 37° C. in 100% bovine serum, or at 37° C. in PBS (phosphate buffered saline), as described in Example 1. […]
Compound 2 was dissolved in DCM and was drop coated onto the bottom of a glass vial and solvent was evaporated to form the surface coating. Drug release was carried out in PBS at 37 C with buffer changes and was monitored by HPLC.
Compound 3 was dissolved in DCM and was drop coated onto the bottom of a glass vial and solvent was evaporated to form the surface coating. Drug release was carried out in PBS at 37 C with buffer changes and was monitored by HPLC. […]

In the case of “dexamethasone-hexane-dexamethasone [Compound 4]”, the “Cumulative drug release from the coated surface” value [1] is reported as “consistent drug release” and the “In vitro drug release profile” value [2] is reported as “sustained release”.

For “triamcinolone acetonide-triethylene glycol-triamcinolone acetonide [Compound 3]”, the “Cumulative drug release from the coated surface” value [3] was “consistent drug release”.
